Source: patent US20250235496A1, “USE OF BELLIDIFOLIN (BEL) AND/OR BEL-CONTAINING EXTRACT IN PREPARATION OF ANTIDEPRESSANT PRODUCT” (priority 2024, published 2025)
Structures can show the parent of a compound that is named as a salt.

Test system: 5-HT
Experiment: Serum 5-HT level, BEL study
Format: in vivo
Conditions: 20 mg/kg/d gavage, CORT-induced mice
Experimental: Behavioral experiments were conducted once a week, and the serum 5-HT and CORT levels of mice were recorded.

CNCCC(Oc1ccc(C(F)(F)F)cc1)c1ccccc1 (stereo not shown) [Flu, fluoxetine hydrochloride, reference compound]
Serum 5-HT: 142.08 ± 11.12 ng/mL
